Experimental data reported in article PMC3052287 (Psychopharmacology, 2010).

The chains behind the UniProt entries cited, without tags or fusion partners.
UniProt P34969, whole entry: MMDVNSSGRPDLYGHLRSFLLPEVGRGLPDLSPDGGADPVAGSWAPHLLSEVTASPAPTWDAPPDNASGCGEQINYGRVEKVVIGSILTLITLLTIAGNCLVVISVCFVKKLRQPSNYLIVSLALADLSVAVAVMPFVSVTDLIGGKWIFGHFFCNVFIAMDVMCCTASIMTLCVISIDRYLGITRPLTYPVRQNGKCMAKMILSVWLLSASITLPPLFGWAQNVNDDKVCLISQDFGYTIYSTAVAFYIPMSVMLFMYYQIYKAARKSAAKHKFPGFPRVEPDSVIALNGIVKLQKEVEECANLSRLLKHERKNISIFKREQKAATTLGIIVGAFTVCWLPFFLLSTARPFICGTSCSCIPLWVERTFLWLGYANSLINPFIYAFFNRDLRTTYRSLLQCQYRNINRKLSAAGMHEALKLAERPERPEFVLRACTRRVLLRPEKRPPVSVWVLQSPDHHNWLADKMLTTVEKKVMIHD

Assays:
[1] = target: T1, h5-HT7 receptor (Homo sapiens, UniProt P34969)
[2] = target: T1, h5-HT7 receptor; conditions: cited from earlier work
[3] = target: T1, h5-HT7 receptor; conditions: cited from earlier work; remark: listed apart in the source

methiothepin
wash-resistant inhibition of [3H]5-HT binding [1]: all of the binding
share of h5-HT7 binding sites bound in a wash-resistant manner [2]: all the h5-HT7 receptors
inactivation of the h5-HT7 receptor (loss of 5-HT-stimulated cAMP accumulation) [3]: inactivate the h5-HT7 receptor
